Test results published in patent US6013621A, “Method of treating psychosis and/or hyperactivity” (The Rockfeller University, priority 1997, dated 2000).
Entries after “also recorded” stand apart in the source; their conditions may differ.

Experiments:
[1] = tested on: thr^34 -phosphorylated DARPP-32; experiment: phospho-DARPP-32 immunoblot in mouse neostriatal slices; type: cell-based
Method: (§1) Preparation and incubation of striatal slices. Male C57BL/6 mice (5-8 weeks old) were sacrificed by decapitation. The brains of the decapitated mice were rapidly removed and placed in ice-cold, oxygenated Krebs-HCO3 -buffer (124 mM NaCl, 4 mM KCl, 26 mM NaHCO3, 1.5 mM CaCl2, 1.25 mM KH2 PO4, 1.5 mM MgSO4 and 10 mM D-glucose, pH 7.4). Coronal slices (350 μm) were prepared using a vibratome. Striatum and nucleus accumbens were dissected from the slices in ice-cold Krebs-HCO3 - buffer. Each slice was placed in a polypropylene incubation tube with 2 ml of fresh Krebs-HCO3 - buffer containing adenosine deaminase (10 μg/ml). The slices were preincubated at 30° C. under constant oxygenation with 95 % O2 /5 % CO2 for 60 minutes. The buffer was replaced with fresh Krebs-HCO3 -buffer after 30 minutes of preincubation. In some experiments, slices were incubated in Ca^2+ -free/EGTA medium (124 mM NaCl, 4 mM KCl, 26 mM NaHCO3, 1.25 mM KH2 PO4, 3.0 mM MgSO4, 10 mM D-glucose and I mM EGTA, pH 7.4) for 20 minutes after 60 minutes of preincubation in Krebs-HCO3 - buffer. Slices were treated with drugs as specified in each experiment.
Immunoblotting. Frozen tissue samples were sonicated in boiling 1% SDS and boiled for an additional 10 minutes. Small aliquots of the homogenate were retained for protein determination by the BCA protein assay method (Pierce) using bovine serum albumin as a standard. […] The membranes were immunoblotted using a monoclonal antibody (mAb-23; 1:750 dilution) [Snyder et al., (1992)], which is a phosphorylation state-specific antibody raised against a DARPP-32 peptide containing phospho-thr^34, the site phosphorylated by cAMP-dependent protein kinase. A monoclonal antibody (C24-5a; 1:7500 dilution) generated against DARPP-32 (Hemmings and Greengard, 1986), which is not phosphorylation state-specific, was used to estimate the total amount of DARPP-32 in samples.
(§2) Data were analyzed by Student's t -test with significance defined as p<0.05.

[2] = tested on: thr^34 -phosphorylated DARPP-32; experiment: phospho-DARPP-32 immunoblot in nucleus accumbens slices; type: cell-based, mouse
Method: as §1
Immunoblotting. Frozen tissue samples were sonicated in boiling 1% SDS and boiled for an additional 10 minutes. […]
as §2

[3] = prepulse inhibition (PPI) of the startle reflex in mice; conditions: mouse, in vivo
Excerpt: Chambers that are used to assess startle are housed in a sound-attenuated room with a 60 dB(A) ambient noise level. Such chambers consist of a Plexiglass cylinder 8.2 cm in diameter resting on a 12.5×25.5 cm Plexiglass frame within a ventilated enclosure. Acoustic noise bursts are presented via a speaker mounted 24 cm above the animal. A piezoelectric accelerometer mounted below the Plexiglass frame detects and transduces motion within the cylinder. The delivery of acoustic stimuli is controlled by a microcomputer. Startle amplitude is defined as the average of 100 readings. Background noise and all acoustic stimuli are delivered through a speaker (frequency response between 0.5 and 16 Khz) in a chamber. The test session consists of giving: (i) a startle stimulus alone (a 118 dB [A] 40 ms broad band burst); or (ii) no stimulation; or (iii) a startle stimulus preceded 100 ms earlier by a prepulse (a 70 dB [A] 20 ms broad band burst). The amount of PPI is expressed as the percentage decrease in the startle response caused by the presentation of the prepulse. The amount of PPI is calculated using the following equation: [(startle amplitude caused by pulse alone minus startle amplitude caused by pulse preceded by prepulse)/(startle amplitude caused by pulse alone)]×100.

CCCN1CCC[C@@H]2Cc3n[nH]cc3C[C@H]21 [quinpirole]
concentration of near maximal effect on SKF82526-stimulated DARPP-32 phosphorylation [1]: 100 nM | decrease in SKF 82526-induced phosphorylation of DARPP-32 [1]: 40% | effect on the SKF82526-stimulated level of phosphorylated DARPP-32 [1]: antagonized; also recorded: significantly reduced | effect on the level of phosphorylated DARPP-32 under Ca^2+ -free conditions [1]: failed to decrease | level of phospho-DARPP-32, Cyclosporin A (+), 2 min [1]: 5.98 ± 1.28 | level of phospho-DARPP-32, Cyclosporin A (+), 10 min [1]: 5.60 ± 1.05 | level of phospho-DARPP-32, Cyclosporin A (-), 2 min [1]: 0.525 ± 0.051 | level of phospho-DARPP-32, Cyclosporin A (-), 10 min [1]: 0.580 ± 0.058 | phosphorylated DARPP-32 as % of the SKF82526-stimulated level [1]: about 60% | quinpirole-induced decrease in the level of phosphorylated DARPP-32 in the presence of cyclosporin A [1]: still observed | reduction of the 8-bromo-cAMP-induced increase of phosphorylated DARPP-32 [1]: 30% | reduction of the forskolin-stimulated DARPP-32 phosphorylation [1]: 35% | time at which the effect on the basal level was observed [1]: ≤ 1 min | time for which the effect on the basal level was sustained [1]: at least 15 minutes | decrease of the SKF82526-stimulated DARPP-32 phosphorylation [2]: about 60% | decrease of the basal level of DARPP-32 phosphorylation [2]: about 50% | effect on the degree of PPI [3]: reduces the degree of PPI
